Results on one molecule are retold here after US9828368B2 (MERCK SHARP & DOHME CORP., priority 2013, dated 2017).

By UniProt entry, the sequences of proteins in these tests, tags left out.
UniProt O43614, whole entry: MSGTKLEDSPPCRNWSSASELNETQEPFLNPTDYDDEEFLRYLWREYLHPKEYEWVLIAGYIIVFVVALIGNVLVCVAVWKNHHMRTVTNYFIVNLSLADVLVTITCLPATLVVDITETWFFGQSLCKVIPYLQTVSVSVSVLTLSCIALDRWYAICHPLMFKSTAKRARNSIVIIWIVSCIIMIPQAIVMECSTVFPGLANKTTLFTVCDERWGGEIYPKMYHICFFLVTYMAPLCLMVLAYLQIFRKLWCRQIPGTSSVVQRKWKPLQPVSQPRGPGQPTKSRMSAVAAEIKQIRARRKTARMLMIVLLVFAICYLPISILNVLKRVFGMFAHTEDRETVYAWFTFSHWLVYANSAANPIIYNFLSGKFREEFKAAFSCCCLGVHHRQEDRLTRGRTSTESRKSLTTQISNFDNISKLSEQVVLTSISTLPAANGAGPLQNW

The target in this test is human orexin-2 receptor (Homo sapiens (Human), UniProt O43614). The test is described as follows: FLIPR Ca2+ flux assay, hOX2R. Conditions: CHO cells expressing human orexin-2 receptor; agonist 70 pM Ala-6,12 orexin-A. The format is cell-based. The protocol: In a typical experiment the OX1 and OX2 receptor antagonistic activity of the compounds of the present invention was determined in accordance with the following experimental method. For intracellular calcium measurements, Chinese hamster ovary (CHO) cells expressing the rat orexin-1 receptor or the human orexin-2 receptor, are grown in Iscove's modified DMEM containing 2 mM L-glutamine, […], 1% hypoxanthine-thymidine supplement, 100 U/ml penicillin, 100 μg/ml streptomycin and 10% heat-inactivated fetal calf serum (FCS). The cells are seeded at 20,000 cells/well into Becton-Dickinson black 384-well clear bottom sterile plates coated with poly-D-lysine. All reagents were from GIBCO-Invitrogen Corp. The seeded plates are incubated overnight at 37° C. and 5% CO2. […] Within the Fluorescent Imaging Plate Reader (FLIPR, Molecular Devices), test compounds are added to the plate in a volume of 25 μl, incubated for 5 min and finally 25 μl of agonist is added. Fluorescence is measured for each well at 1 second intervals for 5 minutes and the height of each fluorescence peak is compared to the height of the fluorescence peak induced by 70 pM Ala-6,12 orexin-A with buffer in place of antagonist. […] The intrinsic orexin receptor antagonist activity of a compound which may be used in the present invention may be determined by these assays.
On the technique in general: Calcium assays in cells follow changes in intracellular calcium, usually with a dye or a luminescent sensor.

Consider `CC[C@](C)(O)c1nc([C@@H]2CC[C@@H](C)N(C(=O)c3ccsc3-n3nccn3)C2)oc1C` [Example 49, (2-(2H-1,2,3-triazol-2-yl)thiophen-3-yl)((2R,5R)-5-(4-((S)-2-hydroxybutan-2-yl)-5-methyloxazol-2-yl)-2-methylpiperidin-1-yl)methanone], for which the IC50 came out at 16 nM. In other words, the double-digit nanomolar range.

Broadly, the IC50 is the point on the concentration scale where inhibition reaches its midpoint.
